From published antibiotic growth screens (doi:10.1038/s41589-023-01349-8)
Some of the results follow.

system: A. baumannii ATCC 17978; assay: relative growth (fraction of control); higher = less inhibition; details: 50 µM

SMILES	relative growth
COC(=O)CNc1nc(OC)nc(N(C)C)n1	0.889
C=CCC[C@H](Cc1ccc(F)cc1)C(=O)O[C@H](CNC(=O)[C@H](CC=C)CC(=O)N(CCO)Cc1ccccc1)c1ccccc1	1.35
C[C@@H]1CN([C@H](C)CO)C(=O)c2cc(C#CC3(O)CCCC3)cnc2O[C@@H]1CN(C)S(C)(=O)=O	1.09
O=C(CN1CCOCC1)N[C@H]1CC[C@@H](CCn2cc(C3CCCC3)nn2)O[C@@H]1CO	0.957
OCC(O)CN1CCN(c2ccccc2)CC1 (centres undefined)	0.93
[Cl][Ca][Cl]	1.16
CCOC(=O)N(C)C[C@H]1OCc2cnnn2CCCC(=O)N([C@@H](C)CO)C[C@@H]1C	1.11
O=C(C[C@@H]1CC[C@@H]2[C@H](COC[C@H](O)CN2S(=O)(=O)c2cccc(Cl)c2)O1)N1CCOCC1	1.05
COc1cc2c(cc1OC)C(=O)OC2	0.94
C[C@@H]1CN([C@@H](C)CO)S(=O)(=O)c2ccc(C#Cc3ccccc3)cc2O[C@H]1CN(C)S(=O)(=O)c1cn(C)cn1	1.03
O=C(C[C@@H]1CC[C@@H]2[C@H](COC[C@@H](O)CN2S(=O)(=O)c2ccc(Cl)cc2)O1)N[C@@H]1CCN(Cc2ccccc2)C1	0.882
C[C@@H]1O[C@@H](OC[C@H]2O[C@@H](OCCc3ccccc3)[C@H](O)[C@@H](O)[C@@H]2O)[C@H](O)[C@H](O)[C@H]1O	1.1
Cl.OC(CCN1CCCCC1)(c1ccccc1)C1CCCCC1 (centres undefined)	1.04
Nc1nnc(CC(=O)N2CCCCC2)o1	0.949
COC(=O)[C@@H](NC(=O)Cn1cc(C(=O)NO)nn1)c1ccccc1	0.996
O=C(CNc1ccc2c(c1)oc1ccccc12)c1ccc(F)cc1	0.374
COC1=CC(=O)C[C@@H](C)[C@]12Oc1c(Cl)c(OC)cc(OC)c1C2=O	1.07
CCC(=O)NCC[C@@H]1CCc2ccc3c(c21)CCO3	1.44
OC[C@H]1O[C@](O)(CO)[C@@H](O)[C@@H]1O	1.1
C[C@@H]1CCCCO[C@@H](CN(C)Cc2ccc3c(c2)OCO3)[C@H](C)CN([C@H](C)CO)C(=O)c2cc(NS(=O)(=O)c3cccs3)ccc2O1	0.832
CCOC(=O)N1CCN(C[C@@H](O)Cn2c(=O)c3c(ncn3C)n(C)c2=O)CC1	1.06
N#CCC(=O)NCc1ccccn1	0.911

SMILES	relative growth
COc1ccc(-c2coc3cc(O)cc(O)c3c2=O)cc1	1.02
O=C(CN1CCOCC1)NCC[C@@H]1CC[C@H](NC(=O)Cc2ccccn2)[C@H](CO)O1	0.952
C[C@@H]1CC[C@]2(C(=O)O[C@@H]3O[C@H](CO[C@@H]4O[C@H](CO)[C@@H](O[C@H]5O[C@H](C)[C@H](O)[C@@H](O)[C@H]5O)[C@H](O)[C@H]4O)[C@@H](O)[C@H](O)[C@H]3O)CC[C@]3(C)C(=CCC4[C@@]5(C)C[C@@H](O)[C@H](O)[C@@](C)(CO)C5CC[C@]43C)C2[C@H]1C (some centres undefined)	0.946
CC(C)(C)c1ccc(CSCc2nc3ccccc3[nH]2)cc1	0.987
CC(C)(C)N.CCC[C@H](N[C@@H](C)C(=O)N1[C@H](C(=O)O)C[C@@H]2CCCC[C@@H]21)C(=O)OCC	0.985
O=C(O)Cn1cc(Br)c(=O)[nH]c1=O	1.12
CNC(=O)c1c(I)c(NC(C)=O)c(I)c(C(=O)O)c1I	1.12
CCCOc1cc(N)ccc1C(=O)OCCN(CC)CC.Cl	1.08
C[C@H](CO)N1C[C@H](C)[C@H](CN(C)C(=O)C2CCCCC2)Oc2cc(-c3cncnc3)ccc2S1(=O)=O	0.976
CC(CO)(CO)NS(=O)(=O)c1ccccc1	1.17
CSc1nc(C)cc(OCCO)n1	0.988
COC(=O)Nc1nc2cc(C(=O)c3ccc(F)cc3)ccc2[nH]1	1.17
COc1ccc(CC(=O)c2ccc(O)cc2O)cc1	0.913
COc1ccc(-c2cc(=O)c3c(O)cc(OC)c(OC)c3o2)c(OC)c1	1.18
O=C(C[C@H]1C=C[C@H](NC(=O)Nc2ccc3c(c2)OCO3)[C@H](CO)O1)NCCCN1CCOCC1	1.04
CCOC(=O)c1ccc(O)cc1	1.13
COC(=O)Cn1c(=N)n(C)c2ccccc21	1.21
C/C(=C/C(=O)N1CCN(C)CC1)C(=O)O	0.936
O=C(CN1CCOCC1)N[C@@H]1CC[C@H](CCNC(=O)C2CCC2)O[C@H]1CO	0.955
Cc1ccc(C(=O)c2ccc(CC(=O)[O-])n2C)cc1.[Na+]	1.05
COc1ccc2cc1Oc1ccc(cc1)C[C@H]1c3c(cc4c(c3Oc3cc5c(cc3OC)CCN(C)[C@@H]5C2)OCO4)CCN1C	1
CC(O)CC(C)(C)O (centres undefined)	1.07
